What was measured:
[1] = tested on: S. aureus ATCC strains and MRSA; format: cell-based, Staphylococcus aureus; conditions: number of resistant strains out of 21 MRSA strains
[2] = tested on: Coagulase negative Staphylococcus; experiment: Antibiotic susceptibility of coagulase negative Staphylococcus strains; format: cell-based
MDR Enterobacteriaceae = experiment: organism not typed; format: cell-based; conditions: read-out: MIC80 on MDR Enterobacteriaceae
[3] = tested on: Acinetobacter baumannii (Abl, from a patient); experiment: microbe, parasite or virus in culture; format: cell-based; conditions: read-out: MIC80 A. baumannii
Morganella morganii = experiment: microbe, parasite or virus in culture; format: cell-based
Klebsiella pneumoniae = experiment: microbe, parasite or virus in culture; format: cell-based

With CCC[C@@H]1C[C@@H](C(=O)N[C@@H]([C@H]2O[C@H](SC)[C@H](O)[C@@H](O)[C@H]2O)[C@H](C)Cl)N(C)C1 [CLI, clindamycin] the MRSA strains resistant [1] was 12/21, the Antibiotic susceptibility ([2]; CNS1 (Coagulase negative Staphylococcus)) was “R” and the Antibiotic susceptibility ([2]; CNS2 (Coagulase negative Staphylococcus)) was “S”.
O=c1cccccc1S [Compound 363] gave an MIC80 (MDR Enterobacteriaceae) of no more than 20 µM, an MIC80 [3] greater than 100 µM and an MIC80 (Morganella morganii) greater than 33.3 µM. It also gave an MIC80 (Klebsiella pneumoniae; Klebsiella pneumoniae) greater than 33.3 µM and an MIC80 (Klebsiella pneumoniae; Kp6 (Klebsiella pneumonia)) greater than 33.3 µM.

Source: US12502362B2, “Inhibitors of nucleotidyltransferase superfamily enzymes as antibiotics” (priority 2017, dated 2025)
